Source: patent US9145415B2, “Nitrogen-containing heterocyclic compound or salt thereof” (FUJIFILM Corporation, priority 2012, dated 2015)

Amino acid sequences for entries named in this document (tags omitted). Residues count along the entry.
UniProt P36888, 564-993 limits assumed: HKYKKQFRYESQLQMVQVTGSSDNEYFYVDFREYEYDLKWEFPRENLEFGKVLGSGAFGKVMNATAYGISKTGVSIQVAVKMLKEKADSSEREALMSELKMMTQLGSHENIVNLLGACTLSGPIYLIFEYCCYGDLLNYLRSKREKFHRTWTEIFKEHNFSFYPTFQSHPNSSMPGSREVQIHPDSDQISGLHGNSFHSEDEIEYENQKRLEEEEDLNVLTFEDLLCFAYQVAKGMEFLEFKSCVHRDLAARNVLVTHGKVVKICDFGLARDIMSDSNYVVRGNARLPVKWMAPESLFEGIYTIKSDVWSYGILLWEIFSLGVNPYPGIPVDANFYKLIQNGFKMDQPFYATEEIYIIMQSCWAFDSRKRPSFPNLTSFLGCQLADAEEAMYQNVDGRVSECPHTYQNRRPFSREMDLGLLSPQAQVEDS

Tests used:
[1] = molecular target: human FLT3 protein (FLT3 (WT)) (Homo sapiens, UniProt P36888); assay: FLT3 inhibition test (FLT3 enzyme inhibition, time-resolved fluorescence of substrate peptide phosphorylation); format: biochemical; settings: read-out: FLT3 (WT) enzyme inhibition activity
MV4-11 cells = assay: Leukemia cell proliferation inhibition test (ATPlite), MV4-11; settings: read-out: MV4-11 cell proliferation inhibition effect
Molm-13 cells = assay: Leukemia cell proliferation inhibition test (ATPlite), Molm-13; settings: read-out: MOLM13 cell proliferation inhibition effect

Measured: IC50

CCCNc1nc(Nc2ccnc(C)c2)ncc1C#CCCCNC(=O)[C@H](C)N(C)C(=O)/C=C/CN(C)C
< 10 nM: [1] | MV4-11 cells | Molm-13 cells
